# Measured values reported in ChEMBL document CHEMBL5053560, “Nanoparticular Inhibitors of Flavivirus Proteases from Zika, West Nile and Dengue Virus Are Cell-Permeable Antivirals” (ACS Med Chem Lett, 2021).
# Test system: Dengue virus
# Experiment: Antiviral activity against Dengue virus infected in human Huh-7 cells assessed as inhibition of viral replication at 12.5 uM measured after 48 hrs by plaque assay relative to control
# Format: functional
structure (smiles),measurement,value
NC(=O)c1ncn([C@@H]2O[C@H](CO)[C@@H](O)[C@H]2O)n1 [RIBAVIRIN],inhibition at 12.5 µM,75%
